Test system: healthy NSG mice
Settings: 20 mg/kg, 5 d/week, i.p.; decreased white blood cell and platelet count compared to vehicle at study termination
Method: Animal weights and body condition scores were measured three times per week. After twenty one days, surviving mice were euthanized and blood collected for clinical chemistry measurements (complete blood count with differential, clinical chemistries). […] 80% of mice survived >2 weeks in the MK-905 40 mg/kg group, and 100% of mice survived the study in the vehicle and MK-905 20 mg/kg groups.

Sc1ncnc2nc[nH]c12 [6-MP, 6-mercaptopurine]
Myelosuppression (marker for active metabolite): noted

— patent US20240024347A1, “PRODRUGS OF 6-MERCAPTOPURINE” (The Johns Hopkins University, priority 2020, published 2024)
